Molecular target: CYP2C19 (Homo sapiens, UniProt P33261)
Experiment: CYP2C19 activity in human liver microsomes
Conditions: positive control, concentration not given

Chains of the proteins cited; added tags and fusions are not shown.
UniProt P33261, whole entry: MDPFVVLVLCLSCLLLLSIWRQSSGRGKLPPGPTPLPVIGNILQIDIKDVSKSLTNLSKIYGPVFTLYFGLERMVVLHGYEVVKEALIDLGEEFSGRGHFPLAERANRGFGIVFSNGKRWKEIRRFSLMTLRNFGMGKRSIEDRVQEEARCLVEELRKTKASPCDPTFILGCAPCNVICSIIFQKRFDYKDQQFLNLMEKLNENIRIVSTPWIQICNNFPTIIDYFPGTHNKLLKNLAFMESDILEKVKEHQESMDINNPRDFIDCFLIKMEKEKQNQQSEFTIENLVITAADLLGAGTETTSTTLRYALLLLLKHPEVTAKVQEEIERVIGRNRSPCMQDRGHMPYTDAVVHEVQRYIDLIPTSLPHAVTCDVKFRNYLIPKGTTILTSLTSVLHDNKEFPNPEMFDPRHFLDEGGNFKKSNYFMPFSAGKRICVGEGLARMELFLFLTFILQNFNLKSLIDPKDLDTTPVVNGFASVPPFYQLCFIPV

Structure (SMILES): N[C@@H]1C[C@H]1c1ccccc1 (racemic) [Tranylcypromine]
- % Inhibition (duplicate) CYP2C19: 64%

Source: patent US7307101B2, “Use of 20-HETE synthesizing enzyme inhibitors as therapy for cerebral vascular disease” (MCW Research Foundation, Inc., priority 2000, dated 2007)
